Assay results reported in ChEMBL document CHEMBL3822426, “A cascade screening approach for the identification of Bcr-Abl myristate pocket binders active against wild type and T315I mutant” (Bioorg Med Chem Lett, 2016).

Legend:
[1] = target: Tyrosine-protein kinase ABL1 (Homo sapiens) (UniProt P00519); conditions: 50 uM
[2] = target: Tyrosine-protein kinase ABL1 (Homo sapiens) (UniProt P00519); conditions: 100 uM
[3] = target: Tyrosine-protein kinase ABL1 (Homo sapiens) (UniProt P00519); conditions: 25 uM
[4] = test system: Tyrosine-protein kinase ABL1 (Homo sapiens), P00519 [T315I]; conditions: Sf21, 100 uM
[5] = test system: Tyrosine-protein kinase ABL1 (Homo sapiens), P00519 [T315I]; conditions: Sf21, 50 uM
[6] = test system: Tyrosine-protein kinase ABL1 (Homo sapiens), P00519 [T315I]; conditions: Sf21, 25 uM

Q: With `C(=C\n1ncc2c(N3CCCCCC3)ncnc21)/c1ccccc1` as the compound, how does the Vmax(app) [1] read?
A: Its Vmax(app) is 3.6 pmol/min.

Q: What about the Vmax(app) [2] of the same compound?
A: The Vmax(app) was 3.66 pmol/min.

Q: And the Vmax(app) [3]?
A: Its Vmax(app) is 8.2 pmol/min.

Q: What about the Vmax(app) [4] of the same compound?
A: Its Vmax(app) is 6.3 pmol/min.

Q: What about the Vmax(app) [5] of the same compound?
A: Its Vmax(app) is 10.3 pmol/min.

Q: And the Vmax(app) [6]?
A: The Vmax(app) was 16.1 pmol/min.
